In ChEMBL document CHEMBL2321693, “Optimizing solubility and permeability of a biopharmaceutics classification system (BCS) class 4 antibiotic drug using lipophilic fragments disturbing the crystal lattice” (J Med Chem, 2013) one finds Ratio data, which are given here for 1 molecule.

This data set deals with Caco-2. In words: Efflux ratio of permeability from basolateral to apical side to apical to basolateral side in human Caco2 cells. The class given is ADME, cell-based. Put shortly: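 Caco-2 inserts with a 6.5/7.4 pH gradient at 37 °C and 10 μM donor drug. Papp measured in both directions, and the ratio taken as Papp(b−a)/Papp(a−b). Also measured with 1 μM GF120918 (P-gp inhibitor) present. Triplicates.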

As for `O=C(O)c1cn(C2CC2)c2cc(N3CCNCC3)c(F)cc2c1=O` [CIPROFLOXACIN], the Ratio is on record as 5.
